Reference: publication PMC6201879, “N-substituted phenylbenzamides of the niclosamide chemotype attenuate obesity related changes in high fat diet fed mice” (PLoS ONE, 2018)

Test system: Escherichia coli WP2 uvrA (pKM101)
Assay: Ames assay, strain WP2 uvrA (pKM101)
Conditions: Positive Control chemical; concentration not given; without S9

## N-methyl-N′-nitro-N-nitrosoguanidine
  Mean Revertant Colony Counts WP2 uvrA (pKM101) S9-: 328.0
